We go through two compounds from US20200262877A1, “ION CHANNEL-BINDING PEPTIDES AND METHODS OF USE THEREOF” (priority 2017, published 2020).

Sequences of proteins named here, by UniProt entry; tags and fusion partners are left off. Residues count along the entry.
UniProt Q12879, 23-1464: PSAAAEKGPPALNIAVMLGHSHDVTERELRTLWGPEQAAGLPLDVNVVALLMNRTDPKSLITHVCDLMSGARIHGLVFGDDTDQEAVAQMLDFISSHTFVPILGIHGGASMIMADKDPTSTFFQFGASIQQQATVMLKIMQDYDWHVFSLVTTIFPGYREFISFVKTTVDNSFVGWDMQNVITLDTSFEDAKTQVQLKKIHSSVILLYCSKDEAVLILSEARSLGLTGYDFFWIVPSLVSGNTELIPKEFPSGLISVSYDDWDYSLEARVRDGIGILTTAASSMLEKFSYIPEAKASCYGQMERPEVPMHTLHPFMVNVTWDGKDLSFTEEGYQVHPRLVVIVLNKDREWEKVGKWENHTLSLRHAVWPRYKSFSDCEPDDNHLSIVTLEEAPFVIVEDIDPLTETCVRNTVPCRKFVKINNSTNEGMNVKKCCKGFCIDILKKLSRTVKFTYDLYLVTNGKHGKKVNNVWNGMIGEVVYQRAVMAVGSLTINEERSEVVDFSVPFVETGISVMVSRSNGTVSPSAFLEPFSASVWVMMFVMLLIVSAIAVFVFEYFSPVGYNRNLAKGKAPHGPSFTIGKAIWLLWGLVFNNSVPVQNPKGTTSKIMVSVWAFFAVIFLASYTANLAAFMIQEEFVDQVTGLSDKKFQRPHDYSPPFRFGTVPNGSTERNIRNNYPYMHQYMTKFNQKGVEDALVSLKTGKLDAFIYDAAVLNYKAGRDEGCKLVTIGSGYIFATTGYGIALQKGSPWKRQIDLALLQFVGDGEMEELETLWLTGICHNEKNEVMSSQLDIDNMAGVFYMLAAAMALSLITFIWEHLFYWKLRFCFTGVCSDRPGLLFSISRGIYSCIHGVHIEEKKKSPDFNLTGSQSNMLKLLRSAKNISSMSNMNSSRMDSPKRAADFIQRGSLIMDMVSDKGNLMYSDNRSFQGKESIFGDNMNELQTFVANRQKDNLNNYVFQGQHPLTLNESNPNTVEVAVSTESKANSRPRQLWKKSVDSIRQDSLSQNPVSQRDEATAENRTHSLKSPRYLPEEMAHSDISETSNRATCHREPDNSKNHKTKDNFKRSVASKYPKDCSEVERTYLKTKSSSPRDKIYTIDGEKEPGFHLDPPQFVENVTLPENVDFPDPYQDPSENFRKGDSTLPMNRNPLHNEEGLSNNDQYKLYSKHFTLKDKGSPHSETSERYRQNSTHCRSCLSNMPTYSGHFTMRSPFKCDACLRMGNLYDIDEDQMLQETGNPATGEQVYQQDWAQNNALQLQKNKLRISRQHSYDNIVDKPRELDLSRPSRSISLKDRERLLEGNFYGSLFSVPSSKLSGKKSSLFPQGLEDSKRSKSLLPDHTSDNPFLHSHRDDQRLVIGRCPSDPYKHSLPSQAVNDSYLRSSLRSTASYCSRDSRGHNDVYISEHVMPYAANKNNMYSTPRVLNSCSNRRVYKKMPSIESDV
UniProt P30926, 22-498: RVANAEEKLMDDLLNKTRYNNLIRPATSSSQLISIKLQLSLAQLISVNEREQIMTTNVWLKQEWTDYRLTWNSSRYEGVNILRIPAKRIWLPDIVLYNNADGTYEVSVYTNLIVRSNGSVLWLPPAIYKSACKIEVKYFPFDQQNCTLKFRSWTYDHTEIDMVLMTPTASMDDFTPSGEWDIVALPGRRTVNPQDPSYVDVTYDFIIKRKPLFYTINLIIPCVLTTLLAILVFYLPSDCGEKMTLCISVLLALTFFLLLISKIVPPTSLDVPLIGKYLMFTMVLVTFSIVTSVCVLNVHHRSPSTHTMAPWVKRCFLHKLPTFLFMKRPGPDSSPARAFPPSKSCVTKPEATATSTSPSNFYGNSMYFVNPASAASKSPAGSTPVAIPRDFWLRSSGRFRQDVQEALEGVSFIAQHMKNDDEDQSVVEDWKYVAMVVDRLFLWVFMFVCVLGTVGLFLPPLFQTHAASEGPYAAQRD
UniProt P32297, 32-505: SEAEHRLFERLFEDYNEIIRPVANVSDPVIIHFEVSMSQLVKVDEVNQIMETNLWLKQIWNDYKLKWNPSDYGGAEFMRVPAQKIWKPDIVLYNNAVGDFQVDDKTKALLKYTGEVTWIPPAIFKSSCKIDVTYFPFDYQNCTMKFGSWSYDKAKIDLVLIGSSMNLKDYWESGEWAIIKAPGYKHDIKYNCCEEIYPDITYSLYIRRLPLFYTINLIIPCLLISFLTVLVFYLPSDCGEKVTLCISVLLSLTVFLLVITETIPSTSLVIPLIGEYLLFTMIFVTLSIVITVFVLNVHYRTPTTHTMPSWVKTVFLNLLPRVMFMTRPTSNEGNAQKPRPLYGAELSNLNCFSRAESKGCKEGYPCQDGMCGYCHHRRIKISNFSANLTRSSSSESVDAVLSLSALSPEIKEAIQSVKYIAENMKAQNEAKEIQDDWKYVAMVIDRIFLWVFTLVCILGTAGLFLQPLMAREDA

Assay [1] concerns the target T1, NR2A (Homo sapiens, UniProt Q12879).
T1 construct: host or cells: HEK293 or CHO
Put plainly: Ion channel panel (IonWorks Barracuda): NR2A. The class given is cell-based. The protocol: (§1) This example describes a method for assaying ion channel activity in cells.
(§2) Peptides were screened in duplicate at final concentrations of 20 μM and 200 nM, as determined by amino acid analysis, and diluted into HEPES buffered physiological saline (HBPS). HEK293 or CHO cells from the American Type Culture Collection (ATCC) were transfected with the appropriate ion channel before use. HEK293 cells were grown in Dulbecco's Modified Eagle Medium/Nutrient Mixture F-12, and CHO cells were cultured in Ham's F-12 media. All cultures were supplemented with 10% fetal bovine serum, 100 U/ml penicillin G, 100 μg/ml streptomycin sulfate, and the appropriate selection antibiotics. Prior to use, cells were washed twice with Hank's Balanced Salt Solution, and treated with Accutase cell detachment solution (Sigma-Aldrich). Cells were then washed. Peptides and controls were incubated with cells for at least five minutes.
(§3) Percent inhibition was defined as: (1-(Ipeptide/Icontrol))×100%).
(§4) Percent values were calculated using the following formula: % activation=(IPeptide/Icontrol)×100%, where IPeptide is the current produced by co-application a peptide with agonist, and Icontrol refers to the current produced by stimulation in control. Control used for each ion channel is the reference compound matched to a particular channel, as illustrated in TABLE 10 below.

For assay [2], the target named is T2, α3β4 (Homo sapiens, UniProt P30926+P32297).
T2 construct: host or cells: HEK293 or CHO
As to the kind of experiment: Ion channel panel (IonWorks Barracuda): α3β4. The class given is cell-based. The protocol:
as §1, §2, §3, §4

On to `CC12CC3CC(C)(C1)CC(N)(C3)C2` [Memantine, reference compound], for which half-maximal inhibition in assay [1] (IC50) was put at 3770 nM. Take `CNC1(C)C2CCC(C2)C1(C)C` (centres unmarked) [Mecamylamine, reference compound]: the midpoint of inhibition in assay [2], the IC50, lay at 1770 nM.
